Experimental data reported in paper PMC6814236, “Monitoring and characterizing soluble and membrane-bound ectonucleotidases CD73 and CD39” (PLoS ONE, 2019).

Biological target: T1, CD39 (His-Tag Human) (Homo sapiens, UniProt P49961)
T1 construct: His; purchased R&D Systems
T1 sequence (P49961 1-510): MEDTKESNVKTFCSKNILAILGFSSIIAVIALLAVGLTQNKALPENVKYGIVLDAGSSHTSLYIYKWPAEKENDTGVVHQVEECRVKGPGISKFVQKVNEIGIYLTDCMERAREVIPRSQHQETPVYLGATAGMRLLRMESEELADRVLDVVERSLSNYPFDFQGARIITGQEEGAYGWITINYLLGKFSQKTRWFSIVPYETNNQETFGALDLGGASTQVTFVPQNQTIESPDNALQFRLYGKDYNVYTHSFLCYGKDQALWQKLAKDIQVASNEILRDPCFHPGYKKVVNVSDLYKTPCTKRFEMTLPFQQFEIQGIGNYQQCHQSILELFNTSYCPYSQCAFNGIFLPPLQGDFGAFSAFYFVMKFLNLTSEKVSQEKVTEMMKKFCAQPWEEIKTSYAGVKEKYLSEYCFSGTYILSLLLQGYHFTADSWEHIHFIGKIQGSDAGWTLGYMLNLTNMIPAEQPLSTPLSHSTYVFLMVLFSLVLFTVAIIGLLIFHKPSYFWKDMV
Assay: Enzyme activity of purified CD39 with ATP or ADP as substrate
Type: biochemical
Details: 0.1 ng enzyme
Method: • 2 Determination of enzyme activity of purified cytosolic cN-II. Activity of purified cN-II (Human cytosolic 5'-Nucleotidase) was determined using 25μl reaction buffer (50mM HEPES, pH 7.0, 100mM KCl, 20mM MgCl2, 5mM DTT, 2.5mM dATP, and 0.1mg/ml BSA) containing enzyme and AMP substrate at 10μM (96-well format). Reaction continued at 37°C for 60 minutes or for a certain time period and terminated by the addition of equal volume (25μl) of AMP-Glo™ Reagent I. Reactions were mixed well and incubated for additional 30 min at 23°C. This was followed by the addition of 50 μl of AMP Detection Solution (10μl of AMP-Glo™ Reagent II per ml of Kinase-Glo® One Solution) and incubated for additional 60 min at 23°C before reading luminescence. • 3 Determination of enzyme activity of purified CD39. […] When ATP is used as a substrate, an equal volume of Kinase-Glo® One Solution was added to CD39 reactions and incubated for 15 min before reading luminescence using a luminometer. When ADP is used as a substrate for CD39, after enzyme reaction completion, an equal volume of AMP Detection Solution with a known CD39 known inhibitor, such as POM 1 at 50μM final concentration was added. Reactions were mixed well and incubated for 60min before reading luminescence using luminometer. For enzyme dilution, reaction buffer can be used for dilution of enzymes.

CCN(CC)c1ncnc2c1ncn2[C@@H]1O[C@H](COP(=O)(O)OP(=O)(O)C(Br)(Br)P(=O)(O)O)[C@@H](O)[C@H]1O.[Na+].[Na+].[Na+] [ARL 67156, 6-N,N-Diethyl-D-β,γ-dibromomethyleneATP trisodium salt]
IC50 (10 μM ADP as substrate): 280 µM
IC50 (ATP (10 μM) as substrate): 4.48 µM
